Measured values published in paper PMC6925601 (European journal of medicinal chemistry, 2019).

Assays:
[1] = target: T1, Cdc25B (Homo sapiens, UniProt P30305); assay: CycLex Cdc25B fluorometric phosphatase inhibition assay; type: biochemical
T1 sequence (P30305 1-580): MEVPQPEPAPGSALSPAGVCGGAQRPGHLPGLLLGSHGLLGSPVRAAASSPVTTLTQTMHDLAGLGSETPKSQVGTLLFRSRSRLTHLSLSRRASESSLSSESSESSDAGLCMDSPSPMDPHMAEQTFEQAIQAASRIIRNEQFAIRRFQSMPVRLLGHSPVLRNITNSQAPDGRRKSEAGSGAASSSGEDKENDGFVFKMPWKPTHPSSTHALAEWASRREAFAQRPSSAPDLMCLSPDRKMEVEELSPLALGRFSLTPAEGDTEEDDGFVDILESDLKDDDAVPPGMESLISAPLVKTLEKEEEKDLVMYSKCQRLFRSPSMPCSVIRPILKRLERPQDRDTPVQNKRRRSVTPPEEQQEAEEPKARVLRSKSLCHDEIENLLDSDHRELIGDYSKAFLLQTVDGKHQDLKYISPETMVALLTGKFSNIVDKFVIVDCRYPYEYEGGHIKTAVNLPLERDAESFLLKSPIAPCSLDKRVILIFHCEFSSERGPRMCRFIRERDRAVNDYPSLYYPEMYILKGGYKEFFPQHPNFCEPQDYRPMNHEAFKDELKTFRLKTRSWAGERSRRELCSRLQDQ

[2] = system: nine tumor cell lines and primary PBMCs; assay: Cytotoxicity across the panel of nine tumor cell lines and PBMCs; type: cell-based; conditions: Homo sapiens, PBMC, 24 h, read-out: cytotoxic activity IC50 for most of the cell lines

CC(C)=CC[C@@H](O)C1=CC(=O)c2c(O)ccc(O)c2C1=O [Compound 1, Shikonin, reference compound]
IC50 [1]: < 5 µM | IC50 [2]: < 10 µM
